From patent US9227973B2, “Pyridine CGRP receptor antagonists” (Merck Sharp & Dohme Corp., priority 2012, dated 2016) come the findings set out here.

Protein sequences, listed by entry. Tags and fused reporters are not part of them. Residues count along the entry.
UniProt O60894, 27-148: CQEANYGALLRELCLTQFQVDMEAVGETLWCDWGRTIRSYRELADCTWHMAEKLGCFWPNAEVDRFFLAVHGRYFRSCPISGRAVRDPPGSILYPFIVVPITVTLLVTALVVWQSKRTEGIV
UniProt Q16602, 23-461: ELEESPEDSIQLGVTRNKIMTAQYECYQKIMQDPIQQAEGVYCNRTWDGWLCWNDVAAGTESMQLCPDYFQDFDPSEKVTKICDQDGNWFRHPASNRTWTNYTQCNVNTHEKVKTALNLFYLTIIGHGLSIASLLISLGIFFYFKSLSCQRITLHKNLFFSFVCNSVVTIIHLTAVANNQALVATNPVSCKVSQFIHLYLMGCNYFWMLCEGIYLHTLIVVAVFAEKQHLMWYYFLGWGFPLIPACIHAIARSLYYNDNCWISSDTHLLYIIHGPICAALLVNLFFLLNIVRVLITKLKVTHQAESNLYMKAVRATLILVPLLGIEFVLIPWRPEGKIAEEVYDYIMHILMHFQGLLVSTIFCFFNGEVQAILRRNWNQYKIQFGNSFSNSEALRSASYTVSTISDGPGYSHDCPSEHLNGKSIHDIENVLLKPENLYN

For the assay, the target named is recombinant human CL receptor/RAMP1 (CGRP receptor) (Homo sapiens (Human), UniProt O60894+Q16602). Put plainly: Recombinant receptor functional assay (Assay C), cAMP HTRF. The assay is classed as cell-based. As to conditions: Assay C: HEK 293 cells, 3,500 cells/well, human α-CGRP 1 nM, cAMP inflection point. How it is done:
RECOMBINANT RECEPTOR: Human CL receptor (Genbank accession number L76380) was subcloned into the expression vector pIREShyg2 (BD Biosciences Clontech) as a 5′NheI and 3′ PmeI fragment. Human RAMP1 (Genbank accession number AJ001014) was subcloned into the expression vector pIRESpuro2 (BD Biosciences Clontech) as a 5′NheI and 3′NotI fragment. HEK 293 cells (human embryonic kidney cells; ATCC #CRL-1573) were cultured in DMEM with 4.5 g/L glucose, 1 mM sodium pyruvate and 2 mM glutamine supplemented with 10% fetal bovine serum (FBS), 100 units/mL penicillin and […] streptomycin, and maintained at 37° C. and 95% humidity. Cells were subcultured by treatment with 0.25% trypsin with 0.1% EDTA in HBSS. Stable cell line generation was accomplished by co-transfecting 10 μg of DNA with 30 μg Lipofectamine 2000 (Invitrogen) in 75 cm^2 flasks. CL receptor and RAMP1 expression constructs were co-transfected in equal amounts. […]
RECOMBINANT RECEPTOR FUNCTIONAL ASSAY (Assay C): Cells were resuspended in DMEM/F12 (Hyclone) supplemented with 1 g/L BSA and 300 μM isobutyl-methylxanthine. […] Raw data were transformed into concentration of cAMP using a standard curve then dose response curves were plotted and inflection point (IP) values were determined
(In general: TR-FRET usually uses a lanthanide donor and a delayed reading to cut background.)

Each structure is given as a SMILES string.

As usually defined, the IC50 is the midpoint of a concentration-inhibition curve.

Turning to `O=C(N[C@@H]1CC[C@@H](c2cccc(F)c2F)[C@@H](F)c2cccnc21)c1cnc2c(c1)C[C@@]1(C2)C(=O)Nc2ncccc21` [Example 8C, (S)—N-((5R,6S,9R)-6-(2,3-difluorophenyl)-5-fluoro-6,7,8,9-tetrahydro-5H-cyclohepta[b]pyridin-9-yl)-2′-oxo-1′,2′,5,7-tetrahydrospiro[cyclopenta[b]pyridine-6,3′-pyrrolo[2,3-b]pyridine]-3-carboxamide], the IC50 came out at 22 nM.
Next, `O=C(N[C@H]1CC[C@H](c2cccc(F)c2F)[C@H](F)c2cccnc21)c1cnc2c(c1)C[C@@]1(C2)C(=O)Nc2ncccc21` [Example 8D, (S)—N-((5S,6R,9S)-6-(2,3-difluorophenyl)-5-fluoro-6,7,8,9-tetrahydro-5H-cyclohepta[b]pyridin-9-yl)-2′-oxo-1′,2′,5,7-tetrahydrospiro[cyclopenta[b]pyridine-6,3′-pyrrolo[2,3-b]pyridine]-3-carboxamide]: 570 nM.
